For one substance, HBV-gD in vitro neutralization (IC50 µg/ml) results are on record in patent US20230340081A1.

For the assay, the target named is HBV genotype D viruses (produced in HepG2.2.15 cell culture supernatant) (hepatitis B virus genotype D). As to the kind of experiment: cell-based or functional assay.

Consider Bc8.104 (antibody), for which the HBV-gD in vitro neutralization (IC50 µg/ml) came to 2.61e-06 µg/mL.
